Results as given in publication PMC5973797 (Cell chemical biology, 2018).

Chains of the proteins cited; added tags and fusions are not shown. Lines headed by an entry give the natural chain unless they say otherwise; changes in a name come on top.
UniProt P49759: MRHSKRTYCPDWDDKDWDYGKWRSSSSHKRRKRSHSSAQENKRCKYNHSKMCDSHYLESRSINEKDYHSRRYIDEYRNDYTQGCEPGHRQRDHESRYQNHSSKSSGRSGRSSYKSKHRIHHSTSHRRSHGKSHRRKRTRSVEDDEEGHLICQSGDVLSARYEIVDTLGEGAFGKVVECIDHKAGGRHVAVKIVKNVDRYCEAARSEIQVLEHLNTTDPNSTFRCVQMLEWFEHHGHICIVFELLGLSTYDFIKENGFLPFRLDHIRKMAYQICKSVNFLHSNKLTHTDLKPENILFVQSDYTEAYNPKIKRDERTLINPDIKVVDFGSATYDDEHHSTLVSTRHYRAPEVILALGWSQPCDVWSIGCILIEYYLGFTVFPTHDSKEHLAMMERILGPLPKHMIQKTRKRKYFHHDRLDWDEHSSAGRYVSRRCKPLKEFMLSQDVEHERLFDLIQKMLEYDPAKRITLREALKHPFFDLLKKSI

Columns and labels:
[1] = tested on: SR protein phosphorylation in HeLa cells; test: SR protein phosphorylation western blot with mAb104; assay type: cell-based; conditions: for SR protein phosphorylation: 16 hr
kinome of HeLa cells = conditions: 5 μM
CLK1 = CLK1 (Homo sapiens, UniProt P49759); test: biochemical

| SMILES | SR protein phosphorylation ([1]; 10 μM) | SR protein phosphorylation ([1]; 200 nM, without washout) | SR protein phosphorylation after washout ([1]; 200 nM, after washout) | kinome-wide selectivity, KiNativ before washout (kinome of HeLa cells; 6 hr) | kinome-wide selectivity, KiNativ after washout (kinome of HeLa cells; after washout) | IC50 (CLK1) |
| --- | --- | --- | --- | --- | --- | --- |
| O=C(Nc1cc(C(F)(F)F)ccc1N1CCCCC1)c1ccncc1 [SRPIN340, N-(2-(piperidin-1-yl)-5-(trifluoromethyl)phenyl)isonicotinamide, reference compound] | minimal effect | – | – | – | – | – |
| CCc1cc2c(cc1-c1cccc(S(=O)(=O)F)c1)C(C)(C)c1[nH]c3cc(C#N)ccc3c1C2=O [SRPKIN-1, 3-(3-cyano-9-ethyl-6,6-dimethyl-11-oxo-6,11-dihydro-5H-benzo[b]carbazol-8-yl)benzenesulfonyl fluoride] | – | significantly reduced | continued to show the inhibitory effect | striking selectivity for SRPK1 | more striking | > 10 µM |
